Measurements from PubChem BioAssay (NCI).
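The concentration for 50% growth inhibition is given as GI50. Definition used: TGI = concentration required for complete inhibition of growth.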

Assays:
Experiment in all cases: growth of human tumour cells (NCI), 384-well format
OVCAR-8 ovarian = tested on: OVCAR-8 ovarian
MDA-MB-435 melanoma = tested on: MDA-MB-435 melanoma
UACC-257 melanoma = tested on: UACC-257 melanoma
OVCAR-4 ovarian = tested on: OVCAR-4 ovarian
HT29 colon = tested on: HT29 colon
SF-295 CNS = tested on: SF-295 CNS
EKVX NSCLC = tested on: EKVX NSCLC
HS 578T breast = tested on: HS 578T breast
SK-OV-3 ovarian = tested on: SK-OV-3 ovarian
MDA-MB-231 breast = tested on: MDA-MB-231 breast
NCI-H23 lung = tested on: NCI-H23 lung
IGROV1 ovarian = tested on: IGROV1 ovarian
SK-MEL-2 melanoma = tested on: SK-MEL-2 melanoma
SN12C renal = tested on: SN12C renal
HOP-62 NSCLC = tested on: HOP-62 NSCLC
NCI/ADR-RES ovarian = tested on: NCI/ADR-RES ovarian
UO-31 renal = tested on: UO-31 renal
OVCAR-5 ovarian = tested on: OVCAR-5 ovarian

SMILES: CN(CCCl)CCCl
- GI50 (OVCAR-8 ovarian): 7.1 µM
- TGI (OVCAR-8 ovarian): 26.6 µM
- GI50 (MDA-MB-435 melanoma): 12.9 µM
- TGI (MDA-MB-435 melanoma): 27.4 µM
- GI50 (UACC-257 melanoma): 14.1 µM
- TGI (UACC-257 melanoma): 30.3 µM
- GI50 (OVCAR-4 ovarian): 18.2 µM
- TGI (OVCAR-4 ovarian): 37.9 µM
- GI50 (HT29 colon): 1730 nM
- TGI (HT29 colon): 13.9 µM
- GI50 (SF-295 CNS): 3.16 µM
- TGI (SF-295 CNS): 10.6 µM
- GI50 (EKVX NSCLC): 14.5 µM
- TGI (EKVX NSCLC): 35.8 µM
- GI50 (HS 578T breast): 23.8 µM
- GI50 (SK-OV-3 ovarian): 13.4 µM
- TGI (SK-OV-3 ovarian): 51.7 µM
- GI50 (MDA-MB-231 breast): 14.3 µM
- TGI (MDA-MB-231 breast): 86.9 µM
- GI50 (NCI-H23 lung): 2960 nM
- TGI (NCI-H23 lung): 10.5 µM
- GI50 (IGROV1 ovarian): 12.7 µM
- GI50 (SK-MEL-2 melanoma): 24.1 µM
- TGI (SK-MEL-2 melanoma): 40.2 µM
- GI50 (SN12C renal): 812 nM
- TGI (SN12C renal): 10.8 µM
- GI50 (HOP-62 NSCLC): 3.42 µM
- TGI (HOP-62 NSCLC): 10.6 µM
- GI50 (NCI/ADR-RES ovarian): 9.94 µM
- TGI (NCI/ADR-RES ovarian): 25.4 µM
- GI50 (UO-31 renal): 5.21 µM
- TGI (UO-31 renal): 29.8 µM
- GI50 (OVCAR-5 ovarian): 5.85 µM
- TGI (OVCAR-5 ovarian): 39.6 µM
